Reference: ChEMBL document CHEMBL1138042, “2-[(4-phenylpiperazin-1-yl)methyl]imidazo(di)azines as selective D4-ligands. Induction of penile erection by 2-[4-(2-methoxyphenyl)piperazin-1-ylmethyl]imidazo[1,2-a]pyridine (PIP3EA), a potent and selective D4 partial agonist” (J Med Chem, 2006)

Amino acid sequences for entries named in this document (tags omitted).
UniProt P14416, whole entry, looked up: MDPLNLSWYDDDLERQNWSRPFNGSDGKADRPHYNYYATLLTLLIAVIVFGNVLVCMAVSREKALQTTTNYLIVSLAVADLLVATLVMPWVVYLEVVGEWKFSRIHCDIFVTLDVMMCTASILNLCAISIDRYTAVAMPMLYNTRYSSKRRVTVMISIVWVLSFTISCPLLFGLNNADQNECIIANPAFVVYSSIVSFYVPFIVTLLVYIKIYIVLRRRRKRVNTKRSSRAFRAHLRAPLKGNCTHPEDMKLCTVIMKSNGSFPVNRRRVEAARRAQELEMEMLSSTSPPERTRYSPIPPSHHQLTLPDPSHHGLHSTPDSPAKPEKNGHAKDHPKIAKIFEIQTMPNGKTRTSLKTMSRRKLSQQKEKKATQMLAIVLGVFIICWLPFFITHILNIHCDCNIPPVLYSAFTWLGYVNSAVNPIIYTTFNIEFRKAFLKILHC
UniProt P21917, whole entry, looked up: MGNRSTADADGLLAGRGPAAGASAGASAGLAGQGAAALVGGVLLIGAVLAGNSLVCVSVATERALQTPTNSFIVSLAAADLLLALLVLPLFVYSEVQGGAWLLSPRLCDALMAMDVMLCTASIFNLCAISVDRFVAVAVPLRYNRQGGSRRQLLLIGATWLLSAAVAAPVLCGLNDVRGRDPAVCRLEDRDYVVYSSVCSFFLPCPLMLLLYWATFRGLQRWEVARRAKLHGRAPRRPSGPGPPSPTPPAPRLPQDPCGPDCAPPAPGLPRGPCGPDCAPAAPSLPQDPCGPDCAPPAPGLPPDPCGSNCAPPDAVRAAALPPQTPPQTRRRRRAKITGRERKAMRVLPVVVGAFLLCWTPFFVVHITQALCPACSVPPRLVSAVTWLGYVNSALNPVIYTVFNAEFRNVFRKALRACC

Target: Dopamine receptors; D2 & D4 (Homo sapiens) (UniProt P14416+P21917)
Experiment: Selectivity for human dopamine D4 receptor over dopamine D2(short) receptor
Type: protein assay

In the case of `COc1ccccc1N1CCN(Cc2cn3cc(C)cc(-c4ccccc4)c3n2)CC1`, the Selectivity ratio is reported as 33.
`COc1ccccc1N1CCN(Cc2cn3c(-n4cccn4)cccc3n2)CC1` showed a Selectivity ratio of 300.
